This experiment addresses T1, 5α-reductase (Homo sapiens, UniProt P18405).
T1 construct: host or cells: Hs68 human genital skin fibroblasts
T1 sequence (P18405 1-259): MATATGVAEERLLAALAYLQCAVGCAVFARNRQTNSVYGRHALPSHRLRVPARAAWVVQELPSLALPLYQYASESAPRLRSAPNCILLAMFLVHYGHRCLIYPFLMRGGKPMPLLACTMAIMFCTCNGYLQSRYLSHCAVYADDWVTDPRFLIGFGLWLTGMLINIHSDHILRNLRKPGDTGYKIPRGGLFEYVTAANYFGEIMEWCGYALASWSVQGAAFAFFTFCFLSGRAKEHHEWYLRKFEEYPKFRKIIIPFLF
As to the kind of experiment: Inhibition of 5α-reductase activity (testosterone to 5α-dihydrotestosterone conversion) in Hs68 human genital skin fibroblasts. It is filed as cell-based. To be noted: 0.316 μM test compound, 12 μM testosterone substrate, four hours. The procedure: Cell Culture:5α-Reductase activity was measured using Hs68 human genital skin fibroblasts which were originally purchased from the American Type Culture Collection (Rockville, Md.). The cells were grown in Dulbecco's Modified Eagle's Medium (DMEM) plus 10% stripped fetal bovine serum which was supplemented with amphotericin B (0.25 mg/ml) and gentamicin (25.0 mg/ml) (GIBCO, Grand Island, N.Y.). The serum was stripped of endogenous steroids by incubation with dextran-coated charcoal prior to its addition to the media. The cells were maintained at 37° C. in an atmosphere of 95% air, 5% CO2 and were passaged every 7-10 days by exposure to a trypsin-EDTA solution (0.025% trypsin, 0.265 mM EDTA). […]
At the end of the incubation the media was collected and transferred to an extraction tube containing 5 ml of toluene-ethanol (9:1), to which has been added 20-250 μg each. of unlabeled carrier steroids (estriol, estradiol, estrone, 5α-androstan-3α,17β-diol, 5α-androstan-3β,17β-diol, -androstene-3,17-dione, 5α-androstan-3,17-dione, testosterone, and 5α-dihydrotestosterone) (Steraloids, Inc., Wilton, N.H.). […] The [^14 C]-steroids were included as recovery standards to quantify procedural losses. […] The organic phase was collected and the samples taken to dryness, redissolved in dichloromethane-methanol (9:1) and were analyzed by thin layer chromatography using one of the methods described below. […]

Molecule `CN1C(=O)C=C[C@]2(C)c3ccc(Cl)cc3CC[C@@H]12` [Example 60, (R) (+)-trans-4-methyl-8-chloro-10b-methyl-3,4,4a,5,6,10b-hexahydrobenzo[f]quinolin-3-one] returned an inhibition at 0.316 µM of 86.7%.

One may read the inhibition as the share of the control response that was lost under treatment.

(Values after US5541190A, “Benzo(F)quinolinones” (priority 1995, dated 1996).)
